The values that follow come from patent publication US10066238B2, “Methods for producing antibodies” (priority 2013, dated 2018).

The test concerns ZM214M.PL15 pseudovirus (clade C). As to the kind of experiment: HIV-1 neutralization assay (Env-pseudotyped virus, Luc reporter). The class given is cell-based. The following applies: mean ± SEM; for IC50: TZM-b1 cells.

Where two headings read alike, the source gives them in different places.

What is called IC50 is the concentration at which inhibition is half-maximal. `C[C@H](Cn1cnc2c(N)ncnc21)OCP(=O)(O)O` [TFV, tenofovir]: the “dose reduction index (DRI) in a respective combination with VRC01p” value came out at 1.92 ± 0.43. Besides, the IC50 (TFV concentration in combination, read-out: IC50 in a respective combination with VRC01p) amounted to 980 ± 230 nM. Moreover, the IC50 (TFV, read-out: IC50 when used individually) was found to be 4550 ± 2490 nM.
